Measurements: article PMC2670776 (Hepatology (Baltimore, Md.), 2009)

Tested on: HepB5 cells
Conditions: 50 mM ethanol, 48 hr, DCFDA units per mg protein, 3 experiments

CCO [ethanol]
ROS production, fold-higher: 2.5 fold
